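Cells were grown in 96-well plates and exposed to each compound for 48 hours at five concentrations; endpoints were interpolated linearly between bracketing concentrations, or set to the highest concentration if not reached. GI50 = concentration required for 50% inhibition of growth. TGI: concentration producing complete growth inhibition.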
Tests used:
Assay in all cases: NCI tumour cell line growth inhibition, 48 h
[1] = system: 786-0 renal
[2] = system: A498 renal
[3] = system: A549 NSCLC
[4] = system: ACHN renal
[5] = system: BT-549 breast
[6] = system: CAKI-1 renal
[7] = system: CCRF-CEM leukemia
[8] = system: COLO 205 colon
[9] = system: DU-145 prostate
[10] = system: EKVX NSCLC
[11] = system: HCC-2998 colon
[12] = system: HCT-116 colon
[13] = system: HCT-15 colon
[14] = system: HL-60(TB) leukemia
[15] = system: HOP-62 NSCLC
[16] = system: HOP-92 NSCLC
[17] = system: HS 578T breast
[18] = system: HT29 colon
[19] = system: IGROV1 ovarian
[20] = system: K-562 leukemia
[21] = system: KM12 colon
[22] = system: LOX IMVI melanoma
[23] = system: M14 melanoma
[24] = system: MALME-3M melanoma
[25] = system: MCF7 breast
[26] = system: MDA-MB-231 breast
[27] = system: MDA-MB-435
[28] = system: MDA-N
[29] = system: MOLT-4 leukemia
[30] = system: NCI-H226 lung
[31] = system: NCI-H23 lung
[32] = system: NCI-H322M lung
[33] = system: NCI-H460 lung
[34] = system: NCI-H522 lung
[35] = system: NCI/ADR-RES ovarian
[36] = system: OVCAR-3 ovarian
[37] = system: OVCAR-4 ovarian
[38] = system: OVCAR-5 ovarian
[39] = system: OVCAR-8 ovarian
[40] = system: PC-3 prostate
[41] = system: RPMI-8226 leukemia
[42] = system: RXF 393 renal
[43] = system: SF-268 CNS
[44] = system: SF-295 CNS
[45] = system: SF-539 CNS
[46] = system: SK-MEL-2 melanoma
[47] = system: SK-MEL-28 melanoma
[48] = system: SK-MEL-5 melanoma
[49] = system: SK-OV-3 ovarian
[50] = system: SN12C renal
[51] = system: SNB-19 CNS
[52] = system: SNB-75 CNS
[53] = system: SR leukemia
[54] = system: T-47D breast
[55] = system: TK-10 renal
[56] = system: U251 CNS
[57] = system: UACC-257 melanoma
[58] = system: UACC-62 melanoma
[59] = system: UO-31 renal

## O=C(NCC(F)([N+](=O)[O-])[N+](=O)[O-])N(CC(F)([N+](=O)[O-])[N+](=O)[O-])CC(F)([N+](=O)[O-])[N+](=O)[O-]
[1]
  GI50: 2.16 µM
  TGI: 4.8 µM
[2]
  GI50: 4.86 µM
  TGI: 13.2 µM
[3]
  GI50: 6.17 µM
  TGI: 24 µM
[4]
  GI50: 2.26 µM
  TGI: 6.68 µM
[5]
  GI50: 2.17 µM
  TGI: 6.28 µM
[6]
  GI50: 1.18 µM
  TGI: 2.5 µM
[7]
  GI50: 1.69 µM
  TGI: 5.71 µM
[8]
  GI50: 1.99 µM
  TGI: 3.99 µM
[9]
  GI50: 9.82 µM
  TGI: 23.3 µM
[10]
  GI50: 8.25 µM
  TGI: 34 µM
[11]
  GI50: 8.6 µM
  TGI: 26.5 µM
[12]
  GI50: 2.15 µM
  TGI: 5.37 µM
[13]
  GI50: 1.39 µM
  TGI: 2.68 µM
[14]
  GI50: 1.5 µM
  TGI: 4.96 µM
[15]
  GI50: 9.61 µM
  TGI: 60.1 µM
[16]
  GI50: 1.71 µM
  TGI: 3.93 µM
[17]
  GI50: 13.4 µM
  TGI: 59.1 µM
[18]
  GI50: 2.22 µM
  TGI: 5.78 µM
[19]
  GI50: 5.04 µM
  TGI: 19.3 µM
[20]
  GI50: 1.34 µM
  TGI: 3.7 µM
[21]
  GI50: 5.88 µM
  TGI: 18.8 µM
[22]
  GI50: 2.12 µM
  TGI: 7.23 µM
[23]
  GI50: 2.18 µM
  TGI: 6.39 µM
[24]
  GI50: 2.19 µM
  TGI: 5.16 µM
[25]
  GI50: 1.23 µM
  TGI: 2.8 µM
[26]
  GI50: 2.45 µM
  TGI: 7.54 µM
[27]
  GI50: 1.5 µM
  TGI: 3.46 µM
[28]
  GI50: 2.37 µM
  TGI: 6.69 µM
[29]
  GI50: 1.59 µM
  TGI: 3.93 µM
[30]
  GI50: 7.46 µM
  TGI: 27.9 µM
[31]
  GI50: 10.5 µM
  TGI: 77.5 µM
[32]
  GI50: 20.2 µM
  TGI: 62.1 µM
[33]
  GI50: 3.27 µM
  TGI: 11.4 µM
[34]
  GI50: 1.58 µM
  TGI: 4.02 µM
[35]
  GI50: 6.68 µM
  TGI: 36.5 µM
[36]
  GI50: 2.42 µM
  TGI: 6.63 µM
[37]
  GI50: 2.36 µM
  TGI: 11.8 µM
[38]
  GI50: 14.3 µM
  TGI: 29.7 µM
[39]
  GI50: 3 µM
  TGI: 34.2 µM
[40]
  GI50: 2.48 µM
  TGI: 7.04 µM
[41]
  GI50: 0.88 µM
  TGI: 4.16 µM
[42]
  GI50: 2.15 µM
  TGI: 4.81 µM
[43]
  GI50: 3.71 µM
  TGI: 10.9 µM
[44]
  GI50: 15 µM
  TGI: 36.4 µM
[45]
  GI50: 2.84 µM
  TGI: 8.38 µM
[46]
  GI50: 3.15 µM
  TGI: 9.56 µM
[47]
  GI50: 5.86 µM
  TGI: 13.7 µM
[48]
  GI50: 2.41 µM
  TGI: 7.83 µM
[49]
  GI50: 15.4 µM
  TGI: 28.8 µM
[50]
  GI50: 5.48 µM
  TGI: 18.5 µM
[51]
  GI50: 13.3 µM
  TGI: 34.7 µM
[52]
  GI50: 3.4 µM
  TGI: 11 µM
[53]
  GI50: 1.94 µM
  TGI: 10.5 µM
[54]
  GI50: 2.57 µM
  TGI: 7.69 µM
[55]
  GI50: 2.57 µM
  TGI: 7.26 µM
[56]
  GI50: 4.76 µM
  TGI: 19.4 µM
[57]
  GI50: 5.5 µM
  TGI: 18.5 µM
[58]
  GI50: 10.5 µM
  TGI: 24.1 µM
[59]
  GI50: 2.51 µM
  TGI: 7.61 µM
